Among the data in patent US6756360B1, “Combination of FBPase inhibitors and insulin sensitizers for the treatment of diabetes” (Metabasis Therapeutics, Inc., priority 1998, dated 2004) are IC50 values, retold here.

This assay concerns the target T1, Mouse liver FBPase (Mus musculus, UniProt Q9QXD6).
T1 construct: This partially purified fraction was used for enzyme assays; from tissue; host or cells: mouse liver (45-75% ammonium sulfate fraction of the homogenate)
T1 sequence (Q9QXD6 2-338 limits assumed): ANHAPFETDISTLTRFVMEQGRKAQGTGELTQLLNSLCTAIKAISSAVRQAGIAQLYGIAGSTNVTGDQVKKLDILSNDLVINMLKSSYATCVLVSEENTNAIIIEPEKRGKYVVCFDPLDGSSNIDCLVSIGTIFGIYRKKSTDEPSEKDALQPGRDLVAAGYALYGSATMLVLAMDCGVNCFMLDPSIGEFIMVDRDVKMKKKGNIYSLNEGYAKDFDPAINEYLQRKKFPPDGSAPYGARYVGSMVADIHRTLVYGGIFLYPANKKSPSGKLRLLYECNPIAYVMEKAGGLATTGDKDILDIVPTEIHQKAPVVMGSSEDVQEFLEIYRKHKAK
Nature of the assay: Inhibition of mouse liver FBPase. The assay is classed as biochemical.

Structures are written as SMILES.

Compound `CCc1cc(F)c(N)c2nc(-c3ccc(P(=O)(O)O)o3)n(CC(C)C)c12` [Compound E] registered an IC50 of 1.1 µM.

A word on the IC50: it is the concentration needed to halve the response being measured. Low values mean inhibition by little substance, high ones a need for much substance.
